Test [1] deals with Gardnerella swidsinskii. The format is cell-based. The conditions noted are these: N=4, resistance ≥32 μg/mL MDZ, ≥8 μg/mL CLI. Here is the method: (§1) The minimum inhibitory concentration (MIC), which is a standard measure of the activity of antimicrobials, was determined according to the Clinical and Laboratory Standards Institute protocol (2018) Methods for Antimicrobial Susceptibility Testing of Anaerobic Bacteria (Carpenter et al., 2018). […] Controls for growth in the absence of antimicrobials were also included. OD600 was recorded by a microplate reader (Tecan, Grodig, Austria) after incubation at 37° C. for 48 h or, for some fast-growing strains, after incubation for 24 h. Absence of growth was defined as OD600≤0.14. […] MIC readout and MBC99.5 spotting were performed after 72 h incubation for H2B10B11.
(§2) However, topical intravaginal antibiotic administration is recommended for BV therapy, which allows to reach concentrations of active ingredients in the mg/mL range. […] Abbreviations: n.d., not determined; SJHB, St. Jan Hospital Bruges.
(§3) MIC90 is defined as the MIC value for 90% of the tested strains. For PM-477 (H2B10), the resistance breakpoint is not defined, therefore a “% resistant” is not defined (n.d.).

In test [2] the test system is Gardnerella vaginalis. The format is cell-based. The following applies: N=8, resistance ≥32 μg/mL MDZ, ≥8 μg/mL CLI. As to the method: as §1, §2, §3

Regarding `CCC[C@@H]1C[C@@H](C(=O)N[C@@H]([C@H]2O[C@H](SC)[C@H](O)[C@@H](O)[C@H]2O)[C@H](C)Cl)N(C)C1` [CLI, clindamycin], the N resistant in test [1] and in test [2] was 0 in each case.

Values taken from patent publication US20250144186A1, “NOVEL THERAPEUTIC USES OF GARDNERELLA ENDOLYSINS” (priority 2022, published 2025).
